4 molecules from ChEMBL document CHEMBL4673243, “Discovery of 9-Cyclopropylethynyl-2-((S)-1-[1,4]dioxan-2-ylmethoxy)-6,7-dihydropyrimido[6,1-a]isoquinolin-4-one (GLPG1205), a Unique GPR84 Negative Allosteric Modulator Undergoing Evaluation in a Phase II Clinical Trial” (J Med Chem, 2020) can be followed below.

Sequences of proteins named here, by UniProt entry; tags and fusion partners are left off. A change or cut given only in a name is not applied to a line headed by its entry.
UniProt Q9NQS5: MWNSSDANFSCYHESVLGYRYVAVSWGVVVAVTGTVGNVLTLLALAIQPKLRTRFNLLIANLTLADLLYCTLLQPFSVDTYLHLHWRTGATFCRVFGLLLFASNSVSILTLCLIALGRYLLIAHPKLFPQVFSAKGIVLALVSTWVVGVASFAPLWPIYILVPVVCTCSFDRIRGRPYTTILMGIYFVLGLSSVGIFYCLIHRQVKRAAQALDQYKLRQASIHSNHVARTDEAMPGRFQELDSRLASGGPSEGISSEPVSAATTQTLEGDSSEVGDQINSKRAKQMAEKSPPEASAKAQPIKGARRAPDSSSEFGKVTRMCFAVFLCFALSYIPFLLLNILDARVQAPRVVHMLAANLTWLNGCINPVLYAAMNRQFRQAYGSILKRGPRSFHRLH

Active and inactive are the calls of the source. The calls are words filed in the database; no cut-off is given here.

Assay [1] addresses G-protein coupled receptor 84 (Homo sapiens) (UniProt Q9NQS5). Kind of assay: Displacement of [3H]-9-(2-phenylethyl)-2-(2-pyrazin-2-yloxyethoxy)-6,7-dihydropyrimido[6,1-a]isoquinolin-4-one from recombinant FLAG-tagged GPR84 (unknown origin) expressed in T-REx-293 cells co-expressing Galphai2 incubated for 1 hr by liquid scintillation counting analysis. It is filed as cell-based.

The subject of assay [2] is Mus musculus. Kind of assay: Antiinflammatory activity in po dosed Balb/cj mouse model of DSS-induced colitis assessed as reduction in DAI score administered starting administered once daily for 11 days measured during compound dosing. The format is functional, organism-based. The note with it: time 11.0 day.
In assay [3] the test system is Mus musculus. Nature of the assay: Antiinflammatory activity in Balb/cj mouse model of DSS-induced colitis assessed as reduction in DAI score at 3 to 10 mg/kg, po qd using PEG-200/water formulation administered starting from day 1 to 11 and measured everyday. It is filed as functional, organism-based. The note with it: dose 3-10 mg/kg, time 1-11 day.
Assay [4] has as its system Mus musculus. Kind of assay: Antiinflammatory activity in Balb/cj mouse model of DSS-induced colitis assessed as reduction in neutrophil infiltration in colon at 3 to 10 mg/kg, po qd using PEG-200/water formulation administered from day 1 to 11 by immunohistochemistry analysis. The format is functional, organism-based. The note with it: dose 3-10 mg/kg, time 1-11 day.

With `Fc1cc(F)c2[nH]cc(Cc3c[nH]c4c(F)cc(F)cc34)c2c1`, in assay [1] (filed as negative allosteric modulator), the result was Active.

With `O=c1nc(OCC2COCCO2)cc2n1CCc1cc(C#CC3CC3)ccc1-2` (racemic), in assay [2], the Activity entry is “Dose-dependent effect”.

Regarding `CCCCCCCCCC(=O)O`, the outcome in assay [1] was inactive.

For the molecule `O=c1nc(OC[C@@H]2COCCO2)cc2n1CCc1cc(C#CC3CC3)ccc1-2` [GLPG-1205], the outcome in assay [3] and in assay [4] was Active.
